Source: ChEMBL document CHEMBL1133575, “Discovery of a novel dopamine transporter inhibitor, 4-hydroxy-1-methyl-4-(4-methylphenyl)-3-piperidyl 4-methylphenyl ketone, as a potential cocaine antagonist through 3D-database pharmacophore searching. Molecular modeling, structure-activity relationships, and behavioral pharmacological studies” (J Med Chem, 2000)
pKi: −log10 of the molar value.

Protein sequences, listed by entry. Tags and fused reporters are not part of them.
UniProt Q9WTR4, whole entry: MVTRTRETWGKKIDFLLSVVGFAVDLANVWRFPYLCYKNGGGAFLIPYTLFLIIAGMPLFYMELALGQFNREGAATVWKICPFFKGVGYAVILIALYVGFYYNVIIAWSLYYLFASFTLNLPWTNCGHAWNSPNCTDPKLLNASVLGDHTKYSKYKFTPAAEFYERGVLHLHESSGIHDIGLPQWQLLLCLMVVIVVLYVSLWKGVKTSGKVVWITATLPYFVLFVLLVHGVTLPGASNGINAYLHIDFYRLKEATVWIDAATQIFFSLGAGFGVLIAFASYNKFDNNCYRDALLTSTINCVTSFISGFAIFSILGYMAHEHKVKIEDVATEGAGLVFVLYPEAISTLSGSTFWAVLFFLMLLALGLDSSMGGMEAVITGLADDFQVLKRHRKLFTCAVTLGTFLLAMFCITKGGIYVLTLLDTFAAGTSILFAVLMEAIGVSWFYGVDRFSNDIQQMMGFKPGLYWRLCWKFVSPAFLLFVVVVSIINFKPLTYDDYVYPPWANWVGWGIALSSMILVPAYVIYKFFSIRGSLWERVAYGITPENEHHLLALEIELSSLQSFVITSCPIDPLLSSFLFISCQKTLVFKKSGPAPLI
UniProt Q01959, whole entry: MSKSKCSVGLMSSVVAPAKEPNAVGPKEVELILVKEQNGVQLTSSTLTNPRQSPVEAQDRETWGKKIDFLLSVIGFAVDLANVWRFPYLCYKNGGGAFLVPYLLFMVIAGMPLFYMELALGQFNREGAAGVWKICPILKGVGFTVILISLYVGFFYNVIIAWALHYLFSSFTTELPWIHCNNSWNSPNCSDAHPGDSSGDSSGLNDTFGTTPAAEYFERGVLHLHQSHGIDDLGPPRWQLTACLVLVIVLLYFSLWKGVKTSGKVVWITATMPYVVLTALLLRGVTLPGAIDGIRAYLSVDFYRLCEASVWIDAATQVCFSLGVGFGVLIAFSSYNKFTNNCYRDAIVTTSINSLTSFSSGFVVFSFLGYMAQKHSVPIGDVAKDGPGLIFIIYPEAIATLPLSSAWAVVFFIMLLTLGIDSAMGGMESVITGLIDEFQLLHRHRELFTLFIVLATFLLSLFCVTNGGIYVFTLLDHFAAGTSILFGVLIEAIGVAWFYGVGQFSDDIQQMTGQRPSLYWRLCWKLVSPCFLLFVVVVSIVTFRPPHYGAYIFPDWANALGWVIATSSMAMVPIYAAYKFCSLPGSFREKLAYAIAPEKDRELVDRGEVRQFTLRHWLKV

Experiments:
[1] = biological target: Norepinephrine transporter (Rattus norvegicus, UniProt Q9WTR4); test: Inhibition of [3H]NE Uptake in rat parietal/occipital cortex
[2] = biological target: Sodium-dependent dopamine transporter (Homo sapiens, UniProt Q01959); test: Binding Affinity to cocaine site of dopamine transporter in caudate nuclei which was homogenized and incubated with [3H]mazindol.

SMILES	pKi [1]	pKi [2]
COC(=O)[C@H]1[C@@H](OC(=O)c2ccccc2)C[C@@H]2CC[C@H]1N2C [COCAINE]	6.97	–
CN1CCC(O)(c2ccc(Cl)cc2Cl)C(C(=O)c2ccc(Cl)cc2Cl)C1 (configuration not stated)	–	5.44
